The target of the assay is T1, EphB4 (Homo sapiens, UniProt P54760).
T1 sequence (P54760 16-987): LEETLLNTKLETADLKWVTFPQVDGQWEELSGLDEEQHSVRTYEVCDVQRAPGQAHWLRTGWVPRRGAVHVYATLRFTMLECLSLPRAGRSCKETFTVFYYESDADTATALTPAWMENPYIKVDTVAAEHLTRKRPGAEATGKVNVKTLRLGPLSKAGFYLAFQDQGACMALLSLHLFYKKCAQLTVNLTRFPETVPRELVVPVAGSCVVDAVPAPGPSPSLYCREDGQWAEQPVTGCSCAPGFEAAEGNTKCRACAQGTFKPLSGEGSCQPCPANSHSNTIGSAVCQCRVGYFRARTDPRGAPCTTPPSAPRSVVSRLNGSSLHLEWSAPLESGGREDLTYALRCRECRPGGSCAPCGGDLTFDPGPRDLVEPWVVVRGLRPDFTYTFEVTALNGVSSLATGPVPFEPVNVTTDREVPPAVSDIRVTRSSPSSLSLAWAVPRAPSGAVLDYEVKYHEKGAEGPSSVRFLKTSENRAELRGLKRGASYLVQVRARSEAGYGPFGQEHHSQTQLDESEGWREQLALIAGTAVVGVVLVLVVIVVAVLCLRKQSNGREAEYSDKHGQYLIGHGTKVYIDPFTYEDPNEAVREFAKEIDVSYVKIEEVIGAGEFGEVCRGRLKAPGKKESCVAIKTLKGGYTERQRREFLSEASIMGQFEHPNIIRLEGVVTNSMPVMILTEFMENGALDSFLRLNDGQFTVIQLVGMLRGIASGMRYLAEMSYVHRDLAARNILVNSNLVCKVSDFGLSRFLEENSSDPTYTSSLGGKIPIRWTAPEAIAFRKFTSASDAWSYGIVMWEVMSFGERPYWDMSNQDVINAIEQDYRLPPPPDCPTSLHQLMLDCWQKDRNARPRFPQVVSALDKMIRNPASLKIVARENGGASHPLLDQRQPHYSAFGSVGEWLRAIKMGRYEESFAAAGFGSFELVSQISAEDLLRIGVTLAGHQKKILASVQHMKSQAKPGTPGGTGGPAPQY
In words: Panvera Z'Lyte FRET-based enzymatic assay.

As for `Cn1c(=O)[nH]c(=O)c2c1nc1n(CCCCO)c(-c3ccccc3)cn21` [Compound 2], the “Ligand efficiency LE (−ΔG exp binding/HAC)” value was 0.3 kcal·mol^−1 per heavy atom.

Values taken from US8765775B2, “Anti-angiogenic compounds” (Universitaet Zuerich, priority 2008, dated 2014).
